# Assay results: patent US20090304746A1
# Target: HLA-B*5401 (Human)
# Experiment: competition with 125I-labelled probe peptide, purified HLA, gel filtration
# Details: remark: other sources report otherwise
binder,measurement,value
APLGGAARAL (modifications not checked) [peptide 15.0219],IC50,12.5 µM
